Earlier results, collected in US20250127796A1, “METHODS OF TREATING CANCER WITH PI3K INHIBITOR, GDC-0077” (Genentech, Inc., priority 2018, published 2025).

The chains behind the UniProt entries cited, without tags or fusion partners.
UniProt P03372, whole entry: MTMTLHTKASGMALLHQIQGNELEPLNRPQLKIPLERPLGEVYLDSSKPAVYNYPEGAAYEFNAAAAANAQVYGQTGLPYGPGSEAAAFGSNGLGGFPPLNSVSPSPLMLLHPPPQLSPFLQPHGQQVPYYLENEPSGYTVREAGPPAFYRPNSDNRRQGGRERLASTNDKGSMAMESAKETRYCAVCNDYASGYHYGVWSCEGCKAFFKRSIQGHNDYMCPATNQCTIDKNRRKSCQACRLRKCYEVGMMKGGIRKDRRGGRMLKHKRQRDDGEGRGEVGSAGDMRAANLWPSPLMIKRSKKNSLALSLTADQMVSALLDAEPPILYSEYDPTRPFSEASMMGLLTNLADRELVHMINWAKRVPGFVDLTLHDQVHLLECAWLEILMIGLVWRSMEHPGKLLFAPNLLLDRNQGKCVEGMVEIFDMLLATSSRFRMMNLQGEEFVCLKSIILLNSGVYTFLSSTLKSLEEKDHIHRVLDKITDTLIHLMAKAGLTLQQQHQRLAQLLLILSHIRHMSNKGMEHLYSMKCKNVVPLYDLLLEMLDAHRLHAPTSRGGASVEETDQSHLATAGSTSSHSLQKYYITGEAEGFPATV

Target: ER (Homo sapiens, UniProt P03372)
Settings: relative to tamoxifen; cited from earlier work

C[C@]12CC[C@@H]3c4ccc(O)cc4C[C@@H](CCCCCCCCC[S+]([O-])CCCC(F)(F)C(F)(F)F)[C@H]3[C@@H]1CC[C@@H]2O (stereo partly drawn) [fulvestrant, (7α,17β)-7-{9-[(4,4,5,5,5-pentafluoropentyl)sulfinyl]nonyl}estra-1,3,5(10)-triene-3,17-diol]
affinity for the ER, fold greater than that of tamoxifen: approximately 100 fold
